Measured affinities in a library of Ab-14 light chain variants

Target peptide (SARS-CoV-2 spike, HR2 region): PDVDLGDISGINAS

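The starting antibody came from a phage panning campaign against this peptide. Library AAYL50 holds single substitutions and randomly drawn double and triple substitutions in the CDRs. AlphaSeq pools MATa yeast showing the antibodies with MATalpha yeast showing the peptide. Pairs that bind mate more often; barcode pairs of the diploids are counted by sequencing. Scores were corrected for input abundance and mapped to Kd with protein pairs of known affinity run in the same pool. The assay was run in three technical replicates.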

The variants keep the heavy chain, the linker and the frameworks of Ab-14 (scFv order VH, a 15-residue (Gly4Ser)3 linker, VL).
VH: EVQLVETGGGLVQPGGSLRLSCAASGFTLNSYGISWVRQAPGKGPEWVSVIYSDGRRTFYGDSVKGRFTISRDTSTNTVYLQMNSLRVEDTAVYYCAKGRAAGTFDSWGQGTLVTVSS
VL: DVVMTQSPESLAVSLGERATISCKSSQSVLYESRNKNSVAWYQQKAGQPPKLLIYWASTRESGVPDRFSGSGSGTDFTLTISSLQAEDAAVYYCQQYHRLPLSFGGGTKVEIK

Each variant is given by its three light chain CDRs, as the data file delimits them; those of the parent are KSSQSVLYESRNKNSVA, WASTRES, QQYHRLPLS. Affinities are written as log10 Kd with Kd in nM; a lower number is a better binder. The mean shown is taken over the replicates in which the pair was detected. An entry "nd" has no value in the source: the pair was not observed among the diploids in that replicate. This suggests poor binding but is not conclusive. Parent in this assay: reference entry 0.65, copy in this library 1.68. Three control strains display no target. For library AAYL50, 18% of the pairings with them gave a signal, with a median of 4.19 and one signal in twenty below 2.99, so weak values seen in few replicates may be background. Also given: how often the same scFv was detected with the empty control strains, with their mean in brackets.

CDR-L1,CDR-L2,CDR-L3,log10 Kd (nM) by replicate,"log10 Kd (nM), mean",empty controls
KSSQSVLKESRNKNSVA,WAVQRES,QQYHRLPLS,2.23 / 2.16 / 4.97,3.12,0/9
KSSQSVLYESRNKNSVA,WASTIES,QQYHRLPAS,nd / 4.21 / nd,4.21,1/9 (2.52)
KSSQYVLYESRNKNKVA,WASTRES,QQTHRLPLS,nd / nd / nd,nd,1/9 (3.27)
KSSQSILYESRNKNSVA,WAKTREP,QQYHRLPLS,2.47 / 2.31 / 2.27,2.35,2/9 (3.48)
KSTQSVLYESRNKNSVA,WADTRES,QQYARLPLS,1.61 / 1.73 / 1.76,1.70,1/9 (3.18)
KSSQSVLYESRNIWSVA,WASTRES,QQYIRLPLS,nd / 3.14 / 2.63,2.88,0/9
KSSQSVLYESRNKNSVA,WSSTRKS,QQYHRLPDS,nd / nd / nd,nd,0/9
KKSQSGLYESRNKNSVA,WASTRES,QQYHRLPLY,2.23 / 2.06 / 2.42,2.24,2/9 (4.95)
KSSQSVLYESRNKSRVA,WASTPES,QQYHRLPLS,nd / nd / nd,nd,2/9 (4.23)
KSSQSVLYESRNKNSVA,WASTRES,QQHHRLPLL,0.37 / 0.72 / 0.70,0.60,4/9 (4.02)
KSSQSVLYESRNKNQVA,WASTRES,QQTHWLPLS,1.92 / 1.80 / 2.11,1.94,2/9 (4.52)
KVSQSVLYESCVKNSVA,WASTRES,QQYHRLPLS,0.73 / 0.66 / 0.76,0.71,0/9
KSSQSHLYESENKNSVA,WASTHES,QQYHRLPLS,nd / nd / nd,nd,0/9
KSSQSVLYESRNKNSVW,WASTRES,QQIHKLPLS,nd / nd / 4.56,4.56,7/9 (5.24)
KSSQSVLYESRNKNSVA,WDSTRES,QCYHRLPRS,3.89 / 3.94 / nd,3.91,4/9 (4.81)
KSSQSVLYCSRNKNSVA,WASTRES,QQYHRYPES,nd / 3.38 / nd,3.38,0/9
KSSQSFLYESRNKNSVA,WASTREL,QQYHRLPLI,1.87 / 1.81 / 1.68,1.79,1/9 (5.50)
MSSQQVLYESRNKRSVA,WASTRES,QQYHRLPLS,3.16 / 3.36 / 3.06,3.19,2/9 (4.94)
KSSISVLYESRNKNSVT,WASTRES,QQYCRLPLS,nd / nd / nd,nd,0/9
KSSQSVMYESRNKTSVA,WASTRES,QQYHRLDLS,1.74 / 2.13 / 2.19,2.02,1/9 (4.39)
KSSQSVLYESRNKNSVA,WASGRES,QHYHRLPLS,nd / nd / nd,nd,1/9 (2.13)
KSSQSVLYKSNNKNSHA,WASTRES,QQYHRLPLS,nd / nd / nd,nd,0/9
KSSQSCLYESRNKNSVA,GASTRES,QQYHRLQLS,1.04 / 1.85 / 2.02,1.64,1/9 (4.35)
KSSQSVLYESRNKNSVA,WATTRES,QIYHRLPLS,nd / 3.34 / 3.36,3.35,0/9
KSAQSVLYESRNYNSVA,WASTRES,QQYHRLMLS,nd / nd / nd,nd,2/9 (4.24)
KSSQSVLYESRNKRSEA,WACTRES,QQYHRLPLS,nd / nd / nd,nd,0/9
KSEQSVLYESRNKNSVA,WASQRES,QQYHPLPLS,2.16 / 1.89 / 2.06,2.04,3/9 (4.29)
FGSQSVLYESRNKNMVA,WASTRES,QQYHRLPLS,nd / 1.80 / nd,1.80,0/9
KSSQHVLYESRNKNIVA,WASTRES,QQHHRLPLS,4.24 / 4.39 / 4.13,4.25,4/9 (4.64)
KSSQSYLYESRNKNSVA,WASTRES,QQHHRLPLS,1.00 / 1.03 / 1.17,1.07,7/9 (5.15)
KSSQSVLYETRNMNSVA,WASTRES,QQYHRLFLS,2.37 / 2.40 / 2.31,2.36,4/9 (4.00)
KSSQSYLYESRNKNSVA,WASTREV,QQYCRLPLS,1.21 / 1.22 / 1.08,1.17,0/9
MSSQSVLYESRNKNSVA,GASTRES,QEYHRLPLS,0.37 / 0.87 / -0.03,0.41,0/9

From the list, the first 2 with no signal in any replicate:

CDR-L1,CDR-L2,CDR-L3,log10 Kd (nM) by replicate,"log10 Kd (nM), mean",empty controls
KSSQYVLYESRNKNKVA,WASTRES,QQTHRLPLS,nd / nd / nd,nd,1/9 (3.27)
KSSQSVLYESRNKNSVA,WSSTRKS,QQYHRLPDS,nd / nd / nd,nd,0/9

Values reported by Engelhart et al. 2022, doi:10.1038/s41597-022-01779-4 (FLAb copy).